According to patent US9023386B2, “Microspheres comprising nanocapsules containing a lipophilic drug” (Yissum Research Development Company of the Hebrew …, priority 2006, dated 2015):

Assay: In vitro release kinetics of DXPL from microparticles
Format: physicochemical
Conditions: 10% acetonitrile in phosphate buffer pH 7.4, different EUDRAGIT blend coatings
Procedure: Owing to tacrolimus detection limit restrictions when sink conditions prevail, the in vitro kinetic experiments were carried out with DXPL using the ultrafiltration technique without any pressure [Magenhiem B, et al. A new in vitro technique for the evaluation of drug release profile from colloidal carriers-ultrafiltration technique at low pressure. Int J Pharm 94:115-123 (1993).].
The ultrafiltration cell device AMICON (Amicon Corp, Danvers, Mass., USA), was used. The filter used was ISOPORE™ 8.0 μm TEPT (Millipore, Bedford, Mass., USA). In this study sink conditions release were matched. […] At given time intervals 0.5 ml sample of the release medium was collected through the 8.0 μm filter which allowed nanocapsules to diffuse through such a filter. Then, 0.5 ml of methanol was added and vortexed to solubilize the nanocapsules. Thereafter, 3 ml of dichloromethane were added and the mixture was vortexed vigorously followed by centrifugation at 4000 rpm over 5 minutes. After centrifugation, the dichloromethane layer (lower layer) was transferred to a clean tube and evaporated under air to dryness. The residue was dissolved in 200 μl of methanol, and 50 μl were injected to HPLC under the conditions previously described.

Substance: Dexamethasone palmitate [DXPL]
- DXPL release profile from microspheres, in words: faster with the EUDRAGIT L:RS, 75:25 than with the RS:L, 75:25
